# Measured values reported in patent US10385403B2, “DDR2 mutations in squamous cell lung cancer” (The Broad Institute, Inc., priority 2012, dated 2019).
# Tested on: NIH-3T3 cells expressing L858R EGFR
# Test: Soft agar colony formation
# Assay type: cell-based
substance,measurement,value
"N-(2 ? chloro-6-methylphenyl)-2-[[6-[4-(2-hydroxyethyl)-1-piperazinyl]-2-methyl-4 ? pyrimidinyl]amino]-5-thiazolecarboxamide, monohydrate [Dasatinib]",Colony formation in soft agar,inhibited the colony formation
